Consider one compound from ChEMBL document CHEMBL5214925, “Dual-target inhibitors of indoleamine 2, 3 dioxygenase 1 (Ido1): A promising direction in cancer immunotherapy” (Eur J Med Chem, 2022).

The test has as its system Lewis lung carcinoma. In words: Antitumor activity against Lewis lung carcinoma cell in C57BL/6 mouse assessed as decrease in tumor volume at 60 mg/kg relative to control. Also noted: scale not given: the % may be the effect or the level left.

In the case of `COP(C)(=O)NCCCNc1nonc1/C(=N/O)Nc1ccc(F)c(Br)c1` (stereo unspecified), the Activity stood at 73%.
